Experimental data: ChEMBL document CHEMBL5365408, “Small molecule inhibitors of PCSK9. SAR investigations of head and amine groups” (Bioorg Med Chem Lett, 2023)

Sequences of proteins named here, by UniProt entry; tags and fusion partners are left off. Residues count along the entry.
UniProt Q8NBP7, 31-152 limits assumed: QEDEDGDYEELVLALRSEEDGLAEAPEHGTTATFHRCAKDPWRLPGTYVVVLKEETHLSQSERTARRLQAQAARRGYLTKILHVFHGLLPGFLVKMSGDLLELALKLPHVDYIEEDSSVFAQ
UniProt Q8NBP7, 153-692 limits assumed: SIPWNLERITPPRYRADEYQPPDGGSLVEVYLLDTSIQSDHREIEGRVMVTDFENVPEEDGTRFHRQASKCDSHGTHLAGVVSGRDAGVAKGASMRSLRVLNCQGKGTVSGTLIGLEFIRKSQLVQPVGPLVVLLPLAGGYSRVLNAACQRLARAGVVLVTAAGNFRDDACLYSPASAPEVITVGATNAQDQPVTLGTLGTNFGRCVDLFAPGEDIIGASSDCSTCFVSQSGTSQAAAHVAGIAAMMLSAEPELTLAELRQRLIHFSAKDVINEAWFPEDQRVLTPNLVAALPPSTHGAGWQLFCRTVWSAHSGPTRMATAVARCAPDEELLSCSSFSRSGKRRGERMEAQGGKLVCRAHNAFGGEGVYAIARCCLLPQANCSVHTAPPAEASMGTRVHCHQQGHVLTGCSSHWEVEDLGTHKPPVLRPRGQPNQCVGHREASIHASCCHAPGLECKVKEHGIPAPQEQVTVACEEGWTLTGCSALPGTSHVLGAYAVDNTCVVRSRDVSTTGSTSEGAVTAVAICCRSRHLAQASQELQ

Target: Proprotein convertase subtilisin/kexin type 9 (Homo sapiens, UniProt Q8NBP7)
Assay: Inhibition of full length human PCSK9 expressed in human Huh-7 cells by ELISA analysis
Type: cell-based

In the case of `Cc1cnc2c(c1)nnn2-c1ccc(C(=O)N(c2ncccc2Cl)[C@@H]2CCCNC2)nc1`, the IC50 is reported as 1460 nM.
